{"source": "patent US4885301A", "about": "“Purinone derivatives which have bronchodilator, vasodilator and anti-allergic activities” (Smith Kline & French Laboratories Limited, priority 1987, dated 1989)", "target": "T1, calmodulin insensitive cyclic GMP phosphodiesterase (Sus scrofa, UniProt A0A287B475)", "T1 construct": "Following dissection arteries were flash frozen in liquid nitrogen; from tissue; host or cells: pig pulmonary arteries or aortas, partially purified on DEAE-Sepharose, calmodulin-agarose and cibacron blue-agarose", "assay": "Inhibition of phosphodiesterase (PDE), cyclic GMP hydrolysis", "type": "biochemical, pig", "description": "Eight pig hearts/lungs were collected from the abattoir and kept on ice until the pulmonary arteries or aortas could be dissected and excess fat removed. 120 g of tissue was dissected. Unless otherwise stated all procedures were done at 4° C. Following dissection arteries were flash frozen in liquid nitrogen and stored at -70° C. until required. On the day of homogenisation, tissue was cooled with liquid nitrogen and broken into small pieces by striking with a hammer. The tissue was then homogenised in 15 mM BIS-TRIS, 1 μg/ml leupeptin and antipain, 2 μg/ml pepstatin A, 5 μM benzamidine, 2 mM EDTA (ethylenediaminetetraacetic acid) and 2 mM dithiothreitol, pH 6.5. Phenylmethanesulphonylfluoride (PMSF) was added to a final concentration of 50 μM just prior to homogenisation. The homogenate was then centrifuged for 20 minutes at 30,000 g. Supernatant was filtered firstly through glass wool and then a 0.45 μm filter. […] The column was washed with 150 mls of homogenisation buffer and PDE activities eluted with 150 ml of homogenisation buffer containing 100 mM sodium acetate. Six 25 ml fractions were collected, the flow rate throughout was 80 ml/hr. […]\nand buffered with 50 mM TRIS/5 mM MgCl2 pH 7.5. […] Labelled 5'-AMP was eluted into a scintillation vial with 6 ml 0.25M acetic acid and counted in a scintillation counter using 10 ml Instagel (Packard). […]", "data": [{"smiles": "CCCOc1ccccc1-c1nc2nc[nH]c2c(=O)[nH]1", "note": "[Example 1, 2-(2-Propoxyphenyl)-6-purinone]", "values": [{"measurement": "IC50", "value": 0.96, "unit": "µM"}]}]}
